# From paper PMC4167674 (Angewandte Chemie (International ed. in English), 2013)
# Molecular target: ConA (Canavalia ensiformis, UniProt P02866)
# Details: read-out: IC50 (inhibitory concentration 50); ELLA; binding affinity between the sugar ligand and a single CRD in the lectin
substance,measurement,value
Man3,IC50,75 ± 6 µM
